Where two headings read alike, the source gives them in different places.
Columns and labels:
[1] = test system: patients after severe aneurysmal SAH (WFNS grade 3, 4 or 5); details: for percentage change in relative alpha power, median / percentage change in relative delta power, median: (during infusion-baseline)/baseline x100; for mean alpha/delta ratio (ADR) with sodium nitrite: 10 mcg/kg/min iv for one hour, linear mixed effects model
Text: Patients aged 18-80 years admitted to the Neurosciences Intensive Care Unit (NICU) at the John Radcliffe Hospital, Oxford after having suffered severe aneurysmal SAH (WFNS grade 3, 4 or 5 at time of presentation) were eligible for inclusion in the study. There were no specific selection criteria apart from grade of SAH, and the absence of any exclusion criteria (see below).
Following definitive endovascular aneurysm treatment, each patient underwent a two hour period of continuous EEG monitoring (Porti 7 system, Twente Medical Systems International) on one occasion as soon as was practically possible after endovascular securing of the aneurysm.
Sedative drug levels, muscle relaxants and vasopressors were documented and changes in infusion rates were minimised for the duration of the recording.
We used a simplified EEG montage that aimed for compromise between stable maintenance of recording and full coverage of all vascular territories. Consequently, 7-13 unipolar EEG electrodes (depending on the presence of external ventricular drains and intracranial pressure (ICP) monitors) at the following positions defined according to the international 10-20 system: Cz, Fz, Pz, Fp1, Fp2, F3, F4, P3, P4, T3, T4, O1, O2. EEG data were digitized at a sampling rate of 2048 Hz, with a high pass filter of 0.5 Hz and a low pass filter of 30 Hz.
Each surviving patient was followed up at three to six months post-rupture. Telephone follow up was performed for patients who were unable to attend hospital due to their clinical status. Primary outcome was measured by the presence or absence of delayed ischemia. Long term outcome was assessed by modified Rankin scale at 3 months, via structured standardised questions in person or by telephone. The modified Rankin scale, is a commonly used grading system that measures the degree of disability or dependence in the daily activities of people who have suffered a neurological insult. Good outcome is defined as a score of 0-2, whereas poor outcome is defined as ≥3.
Inc.) code and the EEGLAB v13.4.3b analysis toolbox. Datasets were re-referenced to the average of bilateral mastoid reference electrodes and band pass filtered from 0.5 to 15 Hz using a linear finite impulse response (FIR) filter. Each EEG recording was visually inspected and artefacts were manually removed. Channels showing evidence of excessive amounts of noise were removed from each recording.
Spectral analysis was carried out using FieldTrip, a MATLAB software toolbox for EEG analysis. Data was windowed into 30-second segments that overlapped by 50%. Time-frequency analysis was performed using a multi-taper spectral estimation using discrete prolate spheroidal (Slepian) sequences with 14 tapers, and fast Fourier transform algorithm for each electrode channel. Five 60-second epochs were selected randomly from the first (baseline) and last thirty minutes of the recording (during infusion). The epochs were separated by at least 60 seconds to avoid autocorrelation. The corresponding frequency distribution in each epoch was identified, which enabled determination of power values in the following frequency bands: delta 1-4 Hz, alpha 8-12 Hz and total low frequency power 1-15 Hz.
Statistical analysis was carried out using R and the analysis package nlme. We applied a two level linear mixed effects multilevel model to the data to allow for within patient correlation due to repeated measures on each patient over time. […] A qqnorm plot was used to identify any outliers and these were subsequently eliminated from the model. Goodness of fit was assessed via Shapiro-Wilk normality tests on fixed and random effect residuals, and calculation of R^2 for the model.

humans suffering SAH = details: cited from earlier work
[2] = poor outcome patients (mRS >=3)

O=NO [sodium nitrite]
post infusion relative alpha power, median ([1]; good outcome group, baseline median 0.10): 0.14 uV^2/Hz
during-infusion relative delta power, median ([1]; good outcome patients (mRS 0-2 at 3 months), baseline median 2.88): 2.63 uV^2/Hz
percentage change in relative alpha power, median ([1]; good outcome): increases
percentage change in relative delta power, median ([1]; good outcome): decreases
percentage change in alpha/delta ratio (ADR), FIG. 1 ([1]; patients that did not develop DCI): increases overall
mean alpha/delta ratio (ADR) with sodium nitrite ([1]; patients that did not get DCI, baseline mean ADR 0.033): 0.055
percentage change in alpha/delta ratio (ADR), FIG. 1 ([1]; patients that went on to develop DCI): decrease
mean alpha/delta ratio (ADR) with sodium nitrite ([1]; patients who subsequently developed DCI, baseline mean ADR 0.056): 0.0050
baseline versus during infusion relative alpha power [1, 2]: no significant differences
baseline versus during infusion relative delta power [1, 2]: no significant differences
percentage change in relative alpha power, median ([1]; poor outcome): no significant differences
percentage change in relative delta power, median ([1]; poor outcome): no significant differences
effects on systemic blood pressure, safety profile (humans suffering SAH): minimal effects
toxicity, safety profile of intravenous sodium nitrite (humans suffering SAH): low toxicity

Source: patent US11077209B2, “Use of cerebral nitric oxide donors in the assessment of the extent of brain dysfunction following injury” (OXFORD UNIVERSITY INNOVATION LIMITED, priority 2016, dated 2021)
